ChEMBL document CHEMBL4330076, “Quinazolin-2,4-dione-Based Hydroxamic Acids as Selective Histone Deacetylase-6 Inhibitors for Treatment of Non-Small Cell Lung Cancer” (J Med Chem, 2019)

Species on record: Homo sapiens
Test: Selectivity ratio of IC50 for human full-length recombinant HDAC1 expressed in baculovirus infected Sf9 insect cells to IC50 for human full-length recombinant HDAC6 expressed in baculovirus infected Sf9 insect cells

COc1ccccc1CCn1c(=O)c2ccccc2n(Cc2ccc(C(=O)NO)cc2)c1=O
Ratio IC50: 869
